According to patent US20070098735A1, “Methods for the Elimination of Pathogens and Other Particulate Agents” (priority 2005, published 2007):

What was measured:
[1] = tested on: Murine macrophage lines (RAW264.7, J774.A1 or RAW264NO-); assay: Phagocytosis assay in vitro (uptake of Alexa Fluor 488-labeled particles); type: cell-based; settings: equimolar to HSP70 100 μg/ml; BSA 100 μg/ml; concavalin A 6 μg/ml; adjuvants 10 μl/well; ADP, ATP 3 mM
Procedure: Phagocytosis Assay in vitro. RAW 264.7, RAW264.7 (NO-) and J774A.1 cells were cultured in DMEM or RPMI (RAW NO-) with 10% FCS, harvested, and washed. 3×10^5 cells/well were incubated in serum-free Earle's minimal essential medium (EMEM) in a 24-well plate for 1 hour at 37° C. Alexa Fluor® 488-labeled particles (inert polystyrene microspheres; or yeast, Saccharomyces cerevisiae or Gram-negative bacteria, Escherichia coli, 40 particles/macrophage) were added and co-incubated in a dark environment for 60 minutes in serum free EMEM with or without HSPs, LPS, or control proteins. At the end of 60 minutes incubation, the plate was covered in a dark container on ice. Specific measures were taken to exclude the fluorescence that resulted from particles that were outside of the cell or sticking to the surface of the cell. […] Specifically, trypan blue (0.8 mg/ml) was added for 60 seconds and plates were analyzed immediately using FluorImager SI (Molecular Dynamics/Amersham). Since the emission of Alexa Fluor® 488, about 519 nm at an excitation of about 490 nm, falls within the absorbance range of trypan blue (475-675 nm), the fluorescence of the sample only represents the intracellular fluorescence. External or surface-bound fluorescence is quenched. Using Student's t test, the results were analyzed and P-values were calculated. […]

[2] = tested on: full thickness surgical wounds on the dorsum of BALB/cJ mice; assay: Closure of full thickness surgical wounds, percent wound closure; type: in vivo; settings: day 2 post surgery
Procedure: Surgery and Treatment. Mice were anesthetized using Ketamine (2.0 mg/mouse) and Xylazine (0.1 mg/mouse) were administered intraperitoneally (IP) and the dorsal skin was shaved. After sterile prepping of the area, a full thickness circular wound, 8 mm diameter, was made on the dorsal skin using a disposable biopsy punch (Miltex Inc, York, Pa.) on the midline of the dorsum approximately at the iliac crest. The mice were then randomly assigned into the treatment groups. Initial wound measurements were performed while the mice were still anesthetized. Mice were then treated on days 0, 2, 4, and 6 unless otherwise specified. All agents used as treatment were diluted in 0.5 ml of PBS and injected using a 25-gauge needle in the subcutaneous space in the nape of the neck. […]
Measurements and Analysis. […] The wound surface area was determined by measuring the craniocaudal and lateromedial distances using vernier calipers in perpendicular axis on days 0, 2, 4, 6, 9, and 11 postoperatively unless noted. Changes in wound area were expressed as percent wound closure. […]
Full thickness surgical wounds were created on the dorsum of BALB/cJ mice as described in Methods. […] The wounds were measured on days 0, 2, 4, 6, 9, 11 unless otherwise noted. Wounds were measured serially, percent wound closure was calculated and plotted against time in order to quantitate the rate of healing by secondary intention. […]

[3] = tested on: full thickness wounds of naïve mice; assay: Adoptive transfer of pre-treated RAW 264.7 macrophages into wounded mice, wound closure; type: in vivo; settings: 400,000 macrophages pre-treated at 30 μg/dose; day 2 post surgery
Procedure: Macrophage Cell Culture, Pre-treatment, and Adoptive Transfer. RAW 264.7 macrophages (ATCC) were grown as described by ATCC. Cells were harvested by gently scraping them from the cell culture flasks, centrifuged and washed once in cultured grade PBS. Cell viability was confirmed by trypan blue exclusion and 10^7 cells were treated with either 30 μg/0.5 ml of HSP70, lipopolysaccharide (LPS), mouse serum albumin (MSA), or in PBS at 4° C. for 1 hour. They were then washed 3 times with PBS, and were re-suspended to achieve a concentration of 400,000, 40,000, or 4,000 cells per 0.5 ml PBS. Adoptive transfer of these cells was performed by subcutaneous injections in the nape of the neck using a 25-gauge needle in mice that were wounded as previously described. Adoptive transfers were given on days 0, 2 and 4 post-operatively.
Macrophages were treated in vitro with either HSPs or non-HSP controls and transferred into naïve wounded mice (as described in Materials and Methods) to test if HSPs could in part mediate some of their activity through macrophages. Briefly RAW264.7 cells were treated in vitro with either of HSP70, MSA or LPS, (each at 30 μg/dose) or buffer 1 hour, washed 3 times and administered into naïve mice that had full thickness wounds (as indicated in FIG. 9A) on days 0, 2, and 4 postoperatively. […]

RAW 264.7 macrophages = assay: In vitro macrophage phagocytosis of wound debris; type: cell-based, murine; settings: RAW264.7, labeled wound debris
Procedure: In vitro Macrophage Phagocytosis of Wound Debris. Fresh wounds were harvested from female BALB/cJ mice 6-8 weeks of age. Wounds were cut into small pieces in PBS with PMSF and dounced on ice. Large debris was removed by straining the wound lysate through a 0.7 μM mesh strainer then centrifuged at 1,200 rpm for 10 minutes. The pellet was washed twice with PBS, labeled with Alexafluor488 following manufacture's protocol (Molecular Probes, Eugene, Oreg.). The labeled wound debris was administered to 3×10^5 RAW 264.7 macrophages in serum-free medium in 24-well plates. Phagocytosis was performed either at 37° C. or 4° C. for 30 minutes after which 0.8 mg/ml Trypan blue was used to quench the fluorescence of the non-internalized wound debris. The plates analyzed with FluorImager plate reader.
Macrophage-mediated phagocytosis has been known to play a fundamental role in wound healing by clearing debris and neutrophils. Therefore it was tested whether HSP70 mediates some of its effects on wound healing through increased macrophage phagocytosis. […] Data is plotted as average mean fluorescence intensity from triplicate samples. *P values are the significant difference of mean fluorescence intensity at 37° C. compared to 4° C. in a treatment group. **P values are the significant differences of mean fluorescence intensity of HSP treated macrophages compared to medium treated macrophages. […]

mouse serum albumin [MSA]
uptake of labeled S. cerevisiae as compared to treatment with HSP70 (specificity controls) [1]: None of control proteins used enhanced uptake
wound healing on day 2 ([2]; 30 μg/dose): 22%
wound closure of non-HSP controls compared to PBS control [2]: not significantly different to the PBS control
wound healing on day 2 after adoptive transfer of pre-treated macrophages [3]: 26%
mean fluorescence intensity compared to medium control (RAW 264.7 macrophages): not significantly different to the medium control
